Target: nicotinic receptors (L-[3H]nicotine binding), rat brain membrane preparations
Parameters: species or system rat (Sprague-Dawley)

Compound: CNCC/C=C/c1cncnc1 [Sample No. 2, (E)-N-methyl-4-(5-pyrimidinyl)-3-butene-1-amine]
- Ki: 86 nM
